The text below walks through data of patent US11358960B2, “Pyrazol-3-ones that activate pro-apoptotic BAX” (Dana-Farber Cancer Institute, Inc., priority 2011, dated 2022).

Chains of the proteins cited; added tags and fusions are not shown.
UniProt Q07812, whole entry: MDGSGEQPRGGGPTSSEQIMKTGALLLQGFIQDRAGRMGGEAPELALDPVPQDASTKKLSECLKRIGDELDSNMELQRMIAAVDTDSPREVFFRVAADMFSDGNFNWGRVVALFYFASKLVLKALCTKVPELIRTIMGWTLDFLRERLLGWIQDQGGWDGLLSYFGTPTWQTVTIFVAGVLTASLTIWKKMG

Test [1] addresses recombinant full-length BAX (Homo sapiens, UniProt Q07812). As to the kind of experiment: Competitive fluorescence polarization assay: displacement of FITC-BIM SAHB from BAX. Type of test: binding. The note with it: read-out: FITC-BIM SAHB Competition IC50, comparative tables of Example 6. Background: In fluorescence polarisation assays a small probe gives low polarisation when free and higher when bound to something large.

For another test, the system named is leukemia cells. The test can be described thus: Leukemia cell viability (anti-leukemic activity). The note with it: FIGS. 15-17.
Test [2] relates to BCL-XL-dependent leukemia cell line. As to the kind of experiment: Caspase 3/7 and cell death in BCL-XL-dependent leukemia cell line.
Test [3] relates to MCL-1 dependent leukemia cell line. The test can be described thus: Caspase 3/7 and cell death in isogenic MCL-1 dependent leukemia cell line.

Where two headings read alike, the source gives them in different places.

As a reminder, the IC50 is the midpoint of a concentration-inhibition curve.

`O=C(O)c1ccccc1NN=C1C(=O)N(c2nc(-c3ccccc3)cs2)N=C1c1cccs1`: the IC50 in test [1] amounted to 0.22 µM.

Consider `CCOc1ccccc1NN=C1C(=O)N(c2nc(-c3nccs3)cs2)N=C1C`, for which the IC50 in test [1] worked out at 2.4 µM.

As to `CC1=NN(c2nc(-c3ccccc3)cs2)C(=O)C1=NNc1ccccc1N1CCNCC1`, in test [1] (tested form: HCl), the IC50 came out at 2.7 µM.

In the case of `CCOc1ccccc1NN=C1C(=O)N(c2nc(-c3ccccc3)cs2)N=C1c1ccccc1`, the IC50 in test [1] stood at 0.9 µM.

Regarding `CCOc1ccccc1NN=C1C(=O)N(c2nc(-c3ccccc3)c[nH]2)N=C1C`, in test [1], the half-maximal inhibitory concentration (IC50) came to 0.5 µM.

Regarding `CCOc1ccccc1NN=C1C(=O)N(c2nc(-c3ccccc3)c(C)s2)N=C1C`, the IC50 in test [1] amounted to 2 µM.

Consider `CC1=NN(c2nc(-c3ccccc3)cs2)C(=O)C1=NNc1ccccc1N1CCN(C(=O)OC(C)(C)C)CC1`, for which the half-inhibitory concentration (IC50) in test [1] stood at 1.5 µM.

In the case of `CC1=NN(c2nc(-c3ccccc3)cs2)C(=O)C1=NNc1ccccc1C(=O)O`, in test [1], the IC50 stood at 1.7 µM.

As to `CC1=NN(c2nc(-c3ccccc3)cs2)C(=O)C1=NNc1ccccc1OCCN`, the 50% inhibitory concentration (IC50) in test [1] was found to be 2 µM. Moreover, the anti-leukemic activity result in the test with leukemia cells was “broad anti-leukemic activity”. Further, in test [2], the “caspase 3/7 activity” value is reported as “induces dose-responsive caspase 3/7 activity” and the cell death entry is “cell death in both cell lines”. For the same compound, in test [3], the “caspase 3/7 activity” value is “induces dose-responsive caspase 3/7 activity” and the cell death result is “cell death in both cell lines”.

Consider `O=C(O)c1ccccc1NN=C1C(=O)N(c2nc(-c3ccccc3)cs2)N=C1c1ccccc1`, for which the IC50 in test [1] came out at 0.1 µM.

With `CCOc1ccccc1NN=C1C(=O)N(c2nc(-c3ccccc3)cs2)N=C1CC`, the IC50 in test [1] was 6.2 µM.

Regarding `CCOc1ccccc1NN=C1C(=O)N(c2nc(-c3ccccc3)cs2)N=C1c1cccs1`, the IC50 in test [1] was determined as 2.5 µM.
